# Measurements from ChEMBL document CHEMBL4699657, “Fragment-to-Lead Medicinal Chemistry Publications in 2019” (J Med Chem, 2020).
# pKd: −log10 of the molar value.
# Molecular target: T1, Histone-lysine N-methyltransferase NSD3 (Homo sapiens, UniProt Q9BZ95)
# T1 sequence (Q9BZ95 whole entry): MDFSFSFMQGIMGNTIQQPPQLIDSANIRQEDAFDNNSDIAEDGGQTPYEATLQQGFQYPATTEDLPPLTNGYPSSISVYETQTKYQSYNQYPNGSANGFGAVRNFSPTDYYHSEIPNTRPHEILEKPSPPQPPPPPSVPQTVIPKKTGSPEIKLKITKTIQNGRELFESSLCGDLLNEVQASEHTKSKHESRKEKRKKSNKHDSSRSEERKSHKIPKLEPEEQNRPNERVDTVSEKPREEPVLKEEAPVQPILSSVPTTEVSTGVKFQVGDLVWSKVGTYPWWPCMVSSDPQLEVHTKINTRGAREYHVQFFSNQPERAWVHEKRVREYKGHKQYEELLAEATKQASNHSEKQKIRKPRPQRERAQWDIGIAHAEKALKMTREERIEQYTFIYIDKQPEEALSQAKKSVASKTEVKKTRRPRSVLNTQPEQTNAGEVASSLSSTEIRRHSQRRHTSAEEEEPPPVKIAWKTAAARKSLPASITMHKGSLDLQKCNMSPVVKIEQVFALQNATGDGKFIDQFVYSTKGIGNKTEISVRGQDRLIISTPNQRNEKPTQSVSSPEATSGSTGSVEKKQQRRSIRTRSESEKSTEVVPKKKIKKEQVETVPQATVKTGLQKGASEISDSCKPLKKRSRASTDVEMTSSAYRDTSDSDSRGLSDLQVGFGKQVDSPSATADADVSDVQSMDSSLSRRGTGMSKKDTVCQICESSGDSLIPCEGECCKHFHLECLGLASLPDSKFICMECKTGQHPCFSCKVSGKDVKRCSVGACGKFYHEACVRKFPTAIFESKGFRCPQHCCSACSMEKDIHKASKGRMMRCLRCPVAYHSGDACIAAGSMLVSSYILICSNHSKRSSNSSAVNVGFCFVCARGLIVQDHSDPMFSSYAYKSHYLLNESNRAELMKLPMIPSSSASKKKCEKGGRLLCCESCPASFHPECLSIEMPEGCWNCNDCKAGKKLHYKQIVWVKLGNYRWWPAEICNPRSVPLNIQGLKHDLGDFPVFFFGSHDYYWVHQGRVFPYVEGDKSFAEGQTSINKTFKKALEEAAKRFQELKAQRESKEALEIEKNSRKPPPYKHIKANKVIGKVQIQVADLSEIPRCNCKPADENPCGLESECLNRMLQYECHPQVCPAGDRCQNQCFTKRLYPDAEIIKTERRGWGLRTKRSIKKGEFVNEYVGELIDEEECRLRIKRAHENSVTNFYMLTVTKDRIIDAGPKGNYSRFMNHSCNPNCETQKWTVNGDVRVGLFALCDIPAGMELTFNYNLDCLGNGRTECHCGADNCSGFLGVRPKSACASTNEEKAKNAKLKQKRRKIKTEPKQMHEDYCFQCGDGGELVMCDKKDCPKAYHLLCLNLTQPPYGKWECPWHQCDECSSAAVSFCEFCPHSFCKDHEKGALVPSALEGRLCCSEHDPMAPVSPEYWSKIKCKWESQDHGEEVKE
# Assay: Binding affinity to NSD3 PWWP1 domain (263 to 398 residues) (unknown origin) expressed in Escherichia coli BL21(DE3) by SPR method
structure (smiles),measurement,value
Cc1cc(CN)cc(C)c1-c1ncn(C)c1-c1ccnc2cc(F)ccc12,pKd,6.77
